Values of other authors, collected in patent US11896678B2, “Compositions and methods for treatment of peroxisome proliferator-activated receptor gamma (PPARG) activated cancer” (THE BROAD INSTITUTE, INC., priority 2017, dated 2024).

System: bladder cancer
Details: humans; cited from earlier work

## CN(CCOc1ccc(CC2SC(=O)NC2=O)cc1)c1ccccn1 (stereo not shown) [rosiglitazone]
  risk / hazard ratio for development of bladder cancer: has not been shown to increase the hazard ratio
